In this experiment the target is Vascular endothelial growth factor receptor 2 (Homo sapiens, UniProt P35968).

Protein sequences, listed by entry. Tags and fused reporters are not part of them.
UniProt P35968, whole entry: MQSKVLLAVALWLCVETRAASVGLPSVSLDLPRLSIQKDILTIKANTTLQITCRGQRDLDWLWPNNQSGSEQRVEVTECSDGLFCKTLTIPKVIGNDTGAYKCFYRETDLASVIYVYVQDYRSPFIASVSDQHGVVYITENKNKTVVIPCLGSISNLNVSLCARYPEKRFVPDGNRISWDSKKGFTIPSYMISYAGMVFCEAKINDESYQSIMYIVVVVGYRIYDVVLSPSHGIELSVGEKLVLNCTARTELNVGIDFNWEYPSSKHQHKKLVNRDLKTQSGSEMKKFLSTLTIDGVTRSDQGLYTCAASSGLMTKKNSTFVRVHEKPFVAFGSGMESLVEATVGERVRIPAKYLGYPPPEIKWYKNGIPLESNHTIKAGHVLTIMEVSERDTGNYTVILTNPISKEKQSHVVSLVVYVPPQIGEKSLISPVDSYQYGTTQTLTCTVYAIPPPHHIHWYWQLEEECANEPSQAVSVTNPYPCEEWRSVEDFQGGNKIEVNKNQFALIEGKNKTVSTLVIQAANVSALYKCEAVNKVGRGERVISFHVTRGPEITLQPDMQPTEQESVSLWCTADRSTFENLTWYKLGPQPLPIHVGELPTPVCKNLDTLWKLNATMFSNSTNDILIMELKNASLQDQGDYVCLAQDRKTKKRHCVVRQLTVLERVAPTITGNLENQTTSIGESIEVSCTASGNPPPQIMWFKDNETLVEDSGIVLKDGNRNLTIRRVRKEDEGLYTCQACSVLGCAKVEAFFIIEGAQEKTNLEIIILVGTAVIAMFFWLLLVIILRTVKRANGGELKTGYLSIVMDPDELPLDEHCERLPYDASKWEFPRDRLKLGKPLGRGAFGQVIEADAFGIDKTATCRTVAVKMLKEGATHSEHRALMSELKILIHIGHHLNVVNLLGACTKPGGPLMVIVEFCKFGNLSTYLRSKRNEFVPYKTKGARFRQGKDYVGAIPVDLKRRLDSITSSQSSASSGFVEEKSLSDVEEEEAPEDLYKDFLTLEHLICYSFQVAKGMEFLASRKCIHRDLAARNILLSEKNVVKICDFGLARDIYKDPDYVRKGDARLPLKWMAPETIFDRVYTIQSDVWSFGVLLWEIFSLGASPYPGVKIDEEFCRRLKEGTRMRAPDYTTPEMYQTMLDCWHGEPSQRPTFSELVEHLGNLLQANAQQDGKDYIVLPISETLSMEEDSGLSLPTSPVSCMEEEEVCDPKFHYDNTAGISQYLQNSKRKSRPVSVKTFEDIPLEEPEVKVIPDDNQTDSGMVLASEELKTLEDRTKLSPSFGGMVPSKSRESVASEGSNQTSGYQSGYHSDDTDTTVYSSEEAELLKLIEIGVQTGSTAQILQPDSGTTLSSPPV

The term IC50 denotes the point on the concentration scale where inhibition reaches its midpoint. Low values mean greater potency, high ones weaker potency.

Consider `COc1cc2nccc(Oc3ccc4c(C(=O)Nc5ccc(Cl)cc5)cccc4c3)c2cc1OC`, for which inhibition was half-maximal at 0.5 nM (IC50).
